Target: T1, IGF-1 receptor (Homo sapiens, UniProt P08069)
T1 construct: the effect of this agent on the IGF-1 receptor in prostate cancer cells was studied; endogenous in cells; host or cells: LAPC-4
Test: Ligand-stimulated IGF-1 receptor autophosphorylation in LAPC-4 cells (ELISA)
Format: cell-based
Conditions: 10-minute incubation with IGF-1

Chains of the proteins cited; added tags and fusions are not shown. Residues count along the entry.
UniProt P08069, 741-1367 limits assumed: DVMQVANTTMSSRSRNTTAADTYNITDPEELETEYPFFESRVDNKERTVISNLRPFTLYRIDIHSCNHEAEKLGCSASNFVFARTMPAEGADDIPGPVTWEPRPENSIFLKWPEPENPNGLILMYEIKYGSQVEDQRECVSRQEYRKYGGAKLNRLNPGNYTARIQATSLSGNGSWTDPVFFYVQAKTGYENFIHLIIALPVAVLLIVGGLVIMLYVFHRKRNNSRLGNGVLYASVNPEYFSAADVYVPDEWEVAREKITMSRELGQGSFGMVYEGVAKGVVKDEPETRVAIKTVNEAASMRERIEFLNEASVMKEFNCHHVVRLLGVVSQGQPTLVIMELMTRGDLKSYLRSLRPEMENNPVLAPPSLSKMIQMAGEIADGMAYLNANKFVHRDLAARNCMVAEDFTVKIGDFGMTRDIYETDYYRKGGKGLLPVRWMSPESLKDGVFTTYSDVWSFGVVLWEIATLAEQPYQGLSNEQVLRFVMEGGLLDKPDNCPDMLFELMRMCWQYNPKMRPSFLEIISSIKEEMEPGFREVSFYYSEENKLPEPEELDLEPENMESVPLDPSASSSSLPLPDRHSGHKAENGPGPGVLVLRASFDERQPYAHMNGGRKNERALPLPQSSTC
UniProt P08069, 31-736 partner limits assumed: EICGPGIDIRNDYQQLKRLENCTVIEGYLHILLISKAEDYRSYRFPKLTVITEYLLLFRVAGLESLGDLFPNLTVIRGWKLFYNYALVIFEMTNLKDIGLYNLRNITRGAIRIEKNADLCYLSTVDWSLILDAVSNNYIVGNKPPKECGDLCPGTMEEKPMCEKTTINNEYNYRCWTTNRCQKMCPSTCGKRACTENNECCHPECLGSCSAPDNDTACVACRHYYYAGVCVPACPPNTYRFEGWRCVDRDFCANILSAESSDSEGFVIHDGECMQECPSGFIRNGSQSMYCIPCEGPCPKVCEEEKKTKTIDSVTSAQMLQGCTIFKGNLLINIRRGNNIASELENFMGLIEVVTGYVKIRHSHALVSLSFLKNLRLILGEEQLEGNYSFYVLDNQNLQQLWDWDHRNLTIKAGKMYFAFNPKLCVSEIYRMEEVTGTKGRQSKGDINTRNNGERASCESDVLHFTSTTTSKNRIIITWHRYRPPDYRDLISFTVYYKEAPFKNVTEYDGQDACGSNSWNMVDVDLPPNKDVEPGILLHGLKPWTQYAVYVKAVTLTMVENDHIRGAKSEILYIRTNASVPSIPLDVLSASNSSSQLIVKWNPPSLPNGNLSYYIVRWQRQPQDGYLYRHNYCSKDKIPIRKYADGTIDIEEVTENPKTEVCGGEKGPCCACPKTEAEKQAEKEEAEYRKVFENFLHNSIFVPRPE

Substance: IGF-1: ligand of the IGF-1 receptor, from Insmed Corporation
- stimulation of IGF-1 receptor autophosphorylation (cells incubated 1 day with DHT): very little stimulation
- stimulation of IGF-1 receptor autophosphorylation (cells incubated 3 days with DHT): 2 fold

— patent US20090280112A1 (The Regents of the University of California, priority 2008, published 2009)
